# Yeast mating assay 1: variants of the scFv Ab-14

Values reported by Engelhart et al. 2022, doi:10.1038/s41597-022-01779-4 (FLAb copy).

Binding partner: SARS-CoV-2 spike HR2 peptide, sequence PDVDLGDISGINAS.

Parent scFv Ab-14: VH joined to VL by the linker GGGGSGGGGSGGGGS. Changes lie in the heavy chain CDRs alone.
VH: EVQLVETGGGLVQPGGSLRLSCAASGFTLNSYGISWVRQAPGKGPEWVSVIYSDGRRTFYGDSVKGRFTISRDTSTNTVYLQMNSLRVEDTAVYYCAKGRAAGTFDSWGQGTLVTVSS
VL: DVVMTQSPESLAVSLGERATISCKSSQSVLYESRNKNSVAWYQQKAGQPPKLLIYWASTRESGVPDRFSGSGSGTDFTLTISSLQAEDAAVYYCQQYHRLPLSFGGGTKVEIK

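The starting antibody came from a phage panning campaign against this peptide. In library AAYL49, one, two or three CDR residues were substituted; doubles and triples were drawn at random. The assay is AlphaSeq: two haploid yeast populations carry antibody and antigen on their surface. After mating in shaken culture at 30 °C for 16 h, diploids were selected and their barcode pairs sequenced. The ratio of observed to expected reads was calibrated, replicate by replicate, on BCL2-family standards whose Kd was known from biolayer interferometry. There are three technical replicates.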

Positions count from residue 1 of the parent VH; T28N puts N in place of T. All variants listed here change K65 of the VH, counted from its first residue. Affinities are written as log10 Kd with Kd in nM; a lower number is a better binder. An entry "n.d." has no value in the source: the pair was not observed among the diploids in that replicate. This suggests poor binding but is not conclusive. For reference, the parent read 0.65 as the reference entry and 4.11 (one replicate of three) as a member of this library. Background: pairings of library AAYL49 with three empty control strains gave a value in 15% of cases (median 4.06, 5th percentile 2.83). Values in that range, when seen in few replicates, are hard to tell from nonspecific mating. For each scFv, signals with the empty controls are counted beside the result, with their mean in brackets.

| changes | replicates, log10 nM | empty controls |
|---|---|---|
| T28N D62Y K65V | 1.73 / 1.60 / 1.54 | 2 of 9 (4.34) |
| L29Q V50E K65G | n.d. / n.d. / n.d. | 0 of 9 |
| F27V Y52V K65L | n.d. / n.d. / n.d. | 0 of 9 |
| D62R K65R | 2.41 / 2.71 / 2.83 | 0 of 9 |
| V50M K65F S107L | n.d. / 3.96 / n.d. | 2 of 9 (5.11) |
| L29Y V64R K65W | n.d. / n.d. / n.d. | 1 of 9 (3.26) |
| T28N K65E G103V | 1.07 / 1.24 / 1.28 | 4 of 9 (3.92) |
| Y52C K65E F105V | n.d. / 3.57 / n.d. | 2 of 9 (5.09) |
| Y52Q V64W K65P | n.d. / 4.41 / n.d. | 6 of 9 (3.78) |
| I51C V64T K65M | n.d. / n.d. / n.d. | 1 of 9 (3.45) |
| F27P G61Y K65T | n.d. / n.d. / n.d. | 0 of 9 |
| Y52I D62A K65P | n.d. / n.d. / n.d. | 1 of 9 (1.22) |
| K65M G99H | n.d. / n.d. / n.d. | 0 of 9 |
| F27C G33A K65M | n.d. / n.d. / n.d. | 0 of 9 |
| D54G K65S S107G | 3.91 / n.d. / n.d. | 0 of 9 |
| T28W S31N K65N | 2.45 / 2.74 / 2.79 | 0 of 9 |
| K65F A102I D106C | 1.92 / 1.40 / 1.95 | 1 of 9 (3.83) |
| I34F K65H G103R | n.d. / n.d. / n.d. | 4 of 9 (3.91) |
| R56Q R57G K65Y | n.d. / n.d. / n.d. | 0 of 9 |
| S35D S53P K65G | n.d. / 5.37 / n.d. | 4 of 9 (4.63) |
| V50C S63L K65H | n.d. / n.d. / n.d. | 0 of 9 |
| Y32M D54G K65Y | n.d. / n.d. / 3.82 | 0 of 9 |
| I51G G61N K65I | n.d. / n.d. / n.d. | 0 of 9 |
| T28A G33C K65R | n.d. / 4.86 / 4.24 | 0 of 9 |
| G26D F27Y K65G | n.d. / n.d. / n.d. | 0 of 9 |
| G26N K65S | 3.07 / n.d. / 2.49 | 1 of 9 (3.80) |
| D54F K65F S107Y | n.d. / n.d. / n.d. | 0 of 9 |
| S63M K65D D106K | 4.15 / 2.79 / 2.95 | 3 of 9 (4.08) |
| S53V K65C A102N | n.d. / n.d. / n.d. | 0 of 9 |
| I51S Y52M K65F | n.d. / n.d. / n.d. | 0 of 9 |
| D62C S63K K65M | n.d. / n.d. / n.d. | 0 of 9 |
| Y52N Y60M K65H | n.d. / n.d. / 5.07 | 4 of 9 (4.61) |
| G33D I51P K65I | n.d. / n.d. / 4.01 | 1 of 9 (3.59) |
| Y60P K65V D106V | n.d. / n.d. / n.d. | 0 of 9 |
| F59E K65H A102F | 3.72 / 2.83 / 2.96 | 8 of 9 (4.25) |
| S35P V64S K65H | n.d. / n.d. / n.d. | 0 of 9 |
| T28E K65A R100S | 0.82 / 1.04 / 1.02 | 1 of 9 (3.12) |
| G33Q K65G | n.d. / 3.48 / 3.43 | 1 of 9 (3.00) |
| K65F T104D | 1.57 / 1.41 / 1.60 | 2 of 9 (3.45) |
| N30S S53K K65M | n.d. / n.d. / n.d. | 0 of 9 |
| V50E S63E K65C | n.d. / 3.43 / n.d. | 0 of 9 |
| V64H K65T R100G | 4.42 / n.d. / 4.91 | 2 of 9 (3.92) |
| R56Y K65V F105I | 3.80 / n.d. / n.d. | 0 of 9 |
| S35T K65I T104C | n.d. / n.d. / n.d. | 0 of 9 |
| V50K K65E R100S | n.d. / n.d. / 4.39 | 1 of 9 (3.43) |
| K65G G103L S107I | 3.37 / 2.71 / 2.96 | 4 of 9 (5.13) |
| I34T G61H K65D | 3.91 / 3.12 / n.d. | 0 of 9 |
| S31L K65Q | 1.04 / 1.12 / 1.19 | 0 of 9 |

The last 4 entries again:

{"changes": "V50K K65E R100S", "replicates, log10 nM": "n.d. / n.d. / 4.39", "empty controls": "1 of 9 (3.43)"}
{"changes": "K65G G103L S107I", "replicates, log10 nM": "3.37 / 2.71 / 2.96", "empty controls": "4 of 9 (5.13)"}
{"changes": "I34T G61H K65D", "replicates, log10 nM": "3.91 / 3.12 / n.d.", "empty controls": "0 of 9"}
{"changes": "S31L K65Q", "replicates, log10 nM": "1.04 / 1.12 / 1.19", "empty controls": "0 of 9"}